Measurements reported in paper PMC2365632.

Amino acid sequences for entries named in this document (tags omitted).
UniProt P31390, whole entry: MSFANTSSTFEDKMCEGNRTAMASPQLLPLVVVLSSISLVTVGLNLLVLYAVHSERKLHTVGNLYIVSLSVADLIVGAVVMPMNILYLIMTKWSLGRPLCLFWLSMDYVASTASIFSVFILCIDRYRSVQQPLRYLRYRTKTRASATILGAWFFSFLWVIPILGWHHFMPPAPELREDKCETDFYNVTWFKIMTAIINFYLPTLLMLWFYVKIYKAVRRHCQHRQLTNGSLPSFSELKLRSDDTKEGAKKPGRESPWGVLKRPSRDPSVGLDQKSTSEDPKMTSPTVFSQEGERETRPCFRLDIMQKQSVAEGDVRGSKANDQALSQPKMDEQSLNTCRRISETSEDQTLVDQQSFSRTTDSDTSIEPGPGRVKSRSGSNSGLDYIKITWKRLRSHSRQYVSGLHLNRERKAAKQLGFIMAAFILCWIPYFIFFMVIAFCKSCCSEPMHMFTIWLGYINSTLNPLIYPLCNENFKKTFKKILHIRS

Target: T1, histamine H1 receptor (Rattus norvegicus, UniProt P31390)
T1 construct: gene Hrh1
Conditions: aorta

SMILES: COc1ccc(CN(CCN(C)C)c2ccccn2)cc1 [pyrilamine]
- Kb: 9.33 ± 0.34 pA2
